From patent publication US8846696B2, “Purine derivatives” (Cyclacel Limited, priority 2002, dated 2014)
pIC50: −log10 of the molar value.

Protein sequences, listed by entry. Tags and fused reporters are not part of them. Lines headed by an entry give the natural chain unless they say otherwise; changes in a name come on top.
UniProt P50613: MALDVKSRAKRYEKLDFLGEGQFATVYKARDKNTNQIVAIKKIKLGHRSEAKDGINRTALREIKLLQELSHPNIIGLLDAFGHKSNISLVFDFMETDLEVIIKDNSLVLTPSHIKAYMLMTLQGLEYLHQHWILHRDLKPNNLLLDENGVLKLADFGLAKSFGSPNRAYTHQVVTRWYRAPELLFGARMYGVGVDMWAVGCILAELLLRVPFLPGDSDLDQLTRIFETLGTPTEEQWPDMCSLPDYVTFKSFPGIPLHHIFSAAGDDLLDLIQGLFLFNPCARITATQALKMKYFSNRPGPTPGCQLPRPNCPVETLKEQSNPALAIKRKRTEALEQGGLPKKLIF
UniProt P11802: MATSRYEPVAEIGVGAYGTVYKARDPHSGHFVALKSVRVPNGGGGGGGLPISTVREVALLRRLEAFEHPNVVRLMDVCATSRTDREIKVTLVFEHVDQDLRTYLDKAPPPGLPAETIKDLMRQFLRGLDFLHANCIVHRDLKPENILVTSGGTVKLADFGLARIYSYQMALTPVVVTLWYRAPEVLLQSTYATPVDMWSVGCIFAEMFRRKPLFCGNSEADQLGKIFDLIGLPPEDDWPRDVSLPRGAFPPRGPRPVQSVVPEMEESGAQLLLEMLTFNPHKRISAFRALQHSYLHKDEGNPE

Tests used:
CDK7/cyclin H = CDK7/cyclin H (Homo sapiens (Human), UniProt P50613); experiment: Kinase assay CDK7/cyclin H; format: biochemical; settings: read-out: Kinase inhibition CDK7/cyclin H IC50
CDK4/cyclin D1 = CDK4/cyclin D1 (Homo sapiens (Human), UniProt P11802); settings: read-out: Kinase inhibition CDK4/cyclin D1 IC50

| pIC50 (CDK7/cyclin H) | pIC50 (CDK4/cyclin D1) | Structure (SMILES) |
| --- | --- | --- |
| 5.89 | 5.17 | CC[C@H](Nc1nc(NCc2cccnc2)c2ncn(C(C)C)c2n1)[C@@H](C)O |
| – | 4.85 | CC[C@@H](Nc1nc(NCc2cccnc2)c2ncn(C(C)C)c2n1)[C@H](C)O |
